This passage reports IC50 results from publication PMC4669789, “Selective inhibition of HDAC8 decreases neuroblastoma growth in vitro and in vivo and enhances retinoic acid-mediated differentiation” (Cell Death & Disease, 2015).

Protein sequences, listed by entry. Tags and fused reporters are not part of them. Residues count along the entry.
UniProt P56524, 655-1084 limits assumed: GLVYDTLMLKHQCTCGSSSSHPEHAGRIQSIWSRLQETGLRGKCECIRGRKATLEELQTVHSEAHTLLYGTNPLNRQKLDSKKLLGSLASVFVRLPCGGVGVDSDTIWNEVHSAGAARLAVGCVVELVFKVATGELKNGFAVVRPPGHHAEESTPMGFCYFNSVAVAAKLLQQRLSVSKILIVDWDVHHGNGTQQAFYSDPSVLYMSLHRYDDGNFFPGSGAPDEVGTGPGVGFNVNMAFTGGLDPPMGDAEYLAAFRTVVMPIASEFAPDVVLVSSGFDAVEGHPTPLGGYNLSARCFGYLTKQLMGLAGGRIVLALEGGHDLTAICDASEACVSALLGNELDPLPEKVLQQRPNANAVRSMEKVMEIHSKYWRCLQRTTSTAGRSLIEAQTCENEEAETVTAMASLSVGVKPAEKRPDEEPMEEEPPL

The target in this assay is HDAC4 (Homo sapiens, UniProt P56524). Put plainly: In vitro HDAC activity assay (Reaction Biology). In kind it is biochemical. The following applies: cell-free; read-out: IC50 values of HDAC8 inhibitors, HDAC4. The protocol: Peptide substrate was conjugated with AMC. […] The HDAC reaction was performed at 30 °C for 2 h before adding the developer reagent. The free AMC was detected with excitation of 360 nm and emission 460 nm at kinetic mode for 90 min. IC50 values were calculated with GraphPad Prism version 3.0a (GraphPad Software Inc., San Diego, CA, USA).

The structures appear in SMILES notation. Bounds are passed on as bounds.

Broadly, the IC50 is the midpoint of a concentration-inhibition curve. With `COc1ccc(Cn2ccc3ccc(C(=O)NO)cc32)cc1` [PCI-34051], the IC50 was greater than 59 µM.
